ChEMBL document CHEMBL4613246, “Antimycobacterial Rufomycin Analogues from Streptomyces atratus Strain MJM3502” (J Nat Prod, 2020)

Columns and labels:
[1] = tested on: Mycobacteroides abscessus; assay: Antimycobacterial activity against Mycobacterium abscessus ATCC 19977 assessed as reduction in microbial growth after 7 days by alamar blue assay; format: functional; conditions: ATCC 19977, 168 h
Vero = assay: cells; conditions: Chlorocebus sabaeus

## C/C=C/C[C@@H]1NC(=O)[C@H](CC(C)C)N2C(=O)[C@H](C[C@@H](C)[C@H]2O)N(C)C(=O)[C@H](C)NC(=O)[C@H](Cc2ccc(O)c([N+](=O)[O-])c2)NC(=O)[C@H](CC(C)C)N(C)C(=O)[C@H](Cc2cn(C(C)(C)[C@H](O)CO)c3ccccc23)NC1=O
[1]
  MIC: 0.54 µM
Vero
  IC50: > 100 µM

## C/C=C/C[C@@H]1NC(=O)[C@H](CC(C)C)N2C(=O)[C@H](C[C@](C)(O)[C@H]2O)N(C)C(=O)[C@H](C)NC(=O)[C@H](Cc2ccc(O)c([N+](=O)[O-])c2)NC(=O)[C@H](CC(C)C)N(C)C(=O)[C@H](Cc2cn(C(C)(C)[C@H]3CO3)c3ccccc23)NC1=O
[1]
  MIC: 0.58 µM
Vero
  IC50: > 10 µM
